Experiments:
[1] = system: STZ diabetic C57BL/6 mice; experiment: Intraportal allogeneic islet transplantation, SA-FasL and IL-2; format: in vivo; conditions: soluble IL-2 with SA-FasL on the surface of islet
Experimental: FIG. 6A-B. Combined use of SA-FasL and IL-2 prevents allogeneic islet graft rejection. BALB/c islets were transplanted intraportally into STZ diabetic age-matched males and females C57BL/6 mice. Recipients were treated with the indicated regimens of SA-FasL and IL-2 and monitored for graft rejection. In selected groups islets were either engineered with SA-FasL (SA-FasL-islet) or both SA-FasL and SA-IL2 (SA-FasL/SA-IL2-islet. Mice injected with soluble SA served as controls. Control islet and islet+IL-2 groups are the same for both panels for comparison purposes.
C57BL/6 mice were treated with intravenous injection of streptozotocin (200 mg/kg) and diabetes was confirmed by two consecutive blood glucose readings higher than 300 mg/dl. Pancreatic islets were harvested from BALB/c mice, cultured overnight, and then either left unmodified or engineered with SA-FasL alone or in combination with SA-IL2. These islets were then immediately transplanted intraportally into diabetic mice (450-550 islets/mouse). Mice were then treated with the indicated proteins and doses. Animals were monitored for diabetes, and those with two consecutive daily measurements of ≥250 mg/dl blood glucose level were considered diabetic and confirmation of graft failure. […] Importantly, co-display of both SA-FasL and SA-IL2 was also effective in preventing rejection of ˜40% of grafts (FIG. 6B).

[2] = system: C57BL/6 recipients of allogeneic BALB/c hearts; experiment: Cardiac allograft survival, BALB/c-to-C57BL/6 model; format: in vivo, mice
Experimental: FIG. 7. Synergy between SA-FasL and IL-2 in inducing tolerance to cardiac allografts in the BALB/c-to-C57BL/6 model. C57BL/6 recipients of allogeneic BALB/c hearts were treated i.p. with the indicated doses of IL-2 and SA-FasL and mice were monitored for graft survival.
We next tested if SA-FasL as a biologic can work as an immunomodulator to prevent rejection of vascularized solid grafts. Heart transplantation from BALB/c into C57BL/6 mice was used as a stringent allogeneic heart graft model. C57BL/6 recipients of allogeneic BALB/c hearts were treated with a short course of IL-2 (7 doses) and SA-FasL (15 doses) without any other manipulation. […] However, the combination of both molecules had robust tolerance effects with only 1 out of 9 grafts showing delayed rejection, whereas the rest survived for a 100-day observation period (data is from >3 independent experiments and hearts were scored in blind fashion by 2 individuals).

With “IL-2: human IL-2 obtained commercially or produced in house in insect cells with a 6xHis tag” as the substance, how does the “prevention of graft rejection” value [1] read?
The value was “prevent graft rejection in all graft recipients”.

And the “effect on cardiac graft survival, monotherapy” value ([2]; IL-2 7 doses or SA-FasL 15 doses i.p., no other manipulation)?
The value was “did not have a significant effect”.

What about the induction of tolerance ([2]; IL-2 by itself) of the same substance?
Its induction of tolerance is “no effect on inducing tolerance”.
